AlphaSeq binding of Ab-14 heavy chain variants to a spike HR2 peptide

The target is the same throughout: PDVDLGDISGINAS, from the HR2 region of SARS-CoV-2 spike.

Parent scFv Ab-14: VH joined to VL by a 15-residue (Gly4Ser)3 linker. Changes lie in the heavy chain CDRs alone.
VH: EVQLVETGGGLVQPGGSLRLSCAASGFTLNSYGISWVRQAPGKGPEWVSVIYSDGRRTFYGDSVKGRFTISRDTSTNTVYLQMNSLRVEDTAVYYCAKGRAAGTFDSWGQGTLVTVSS
VL: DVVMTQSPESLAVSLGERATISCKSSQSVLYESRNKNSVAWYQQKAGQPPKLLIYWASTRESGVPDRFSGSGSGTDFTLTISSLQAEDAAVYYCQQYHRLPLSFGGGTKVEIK

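Phage display of a naive human antibody library on the peptide gave the parent. Designed CDR sequences, proposed from the first random library and measured here. Their group label is 14H_GP_HC (GP: Gaussian process model; HC: hill climbing; a sequence that several methods proposed may carry one label only). In AlphaSeq, yeast of one mating type display the scFv and yeast of the other type display the target. The frequency of each diploid, read from paired DNA barcodes, reflects how well the two displayed proteins bind. A regression on co-assayed BCL2-family reference pairs converts the normalised counts of each replicate to an apparent Kd. The assay was run in six technical replicates.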

Substitutions are numbered in sequence along the VH above, starting at 1 (not Kabat).
Scale: log10 of Kd in nM, estimated from mating counts; low values are strong binders.
The mean shown is taken over the replicates in which the pair was detected.
An entry "ND" has no value in the source: the pair was not observed among the diploids in that replicate. This suggests poor binding but is not conclusive.
Empty control strains, which show no peptide, gave a signal in 1% of pairings with all heavy chain designs; the median was 2.08 and 95% of these signals were weaker than 0.84. No background was subtracted. Also given: how often the same scFv was detected with the empty control strains, with their mean in brackets.

changes,"log10 Kd, replicates","log10 Kd (nM), mean",control signals
T28D/S31E/S63A/S107M,0.84 1.57 0.64 0.93 -0.07 -0.08,0.64,0/18
S31E/R100H/S107A,1.04 1.03 0.28 0.23 0.25 0.17,0.50,0/18
N30E/S53A/S63P/D106K,ND ND ND ND ND ND,ND,0/18
G61S/R100K/A102G/S107V,ND 2.17 2.42 1.27 0.55 1.67,1.62,0/18
S31E/T58S/R100H/S107N,1.92 1.19 1.19 1.83 1.22 0.73,1.35,0/18
T28V/S31E/S53A,0.65 -0.09 -0.20 -0.33 0.25 0.06,0.06,0/18
S31D/F59M,0.54 0.43 ND 2.32 0.55 0.94,0.96,0/18
S31E/D106I/S107M,ND ND ND ND ND ND,ND,0/18
T28S/S31E/S53A/R100N,-0.37 -0.58 -0.31 -0.93 -0.52 -0.56,-0.54,0/18
G26P/N30E/S53A/D106K,ND ND ND ND ND ND,ND,0/18
T28E/S31E/G103V/S107T,ND ND ND ND ND 1.62,1.62,0/18
S31D/F59M/G61I/R100N,ND ND ND ND ND ND,ND,0/18
N30H/G61D/R100K/A101L,ND 2.52 ND ND ND ND,2.52,0/18
T28E/S31E/G61T/S63R/R100E,1.18 ND ND 1.72 1.13 1.02,1.26,0/18
T28K/S31Q/G61S/A101Q,-0.50 -0.61 -0.45 -0.73 0.90 0.33,-0.18,0/18
G26Y/S31D/G61I,ND ND ND ND 1.87 ND,1.87,0/18
T28G/S31E/G61T/S63R/R100E,0.22 0.42 1.28 0.54 -0.29 1.17,0.56,1/18 (1.05)
G26K/S31E/A101L,0.55 ND ND ND 1.83 1.07,1.15,0/18
S31M/G61S/A101L/S107T,ND -0.13 0.02 ND ND ND,-0.06,0/18
S31D/G61V,ND ND ND ND ND ND,ND,0/18
T28D/S31E/G103C/S107Q,ND ND ND ND ND ND,ND,0/18
T28S/F59Q/G61I,0.83 1.30 0.66 0.95 1.47 0.93,1.03,0/18
S31E/F59M/A101H,1.47 0.52 1.02 0.75 3.31 0.91,1.33,0/18
S31E/G61T/R100K,ND ND ND ND ND ND,ND,0/18
T28S/G61S/R100V/A102G,ND ND ND ND ND ND,ND,0/18
G61S/S63D/R100E/D106K,ND 1.07 1.43 1.68 2.15 1.62,1.59,1/18 (1.78)
S31E/G61A/G103V/S107K,0.26 0.35 0.29 -0.28 0.12 0.53,0.21,0/18
S31E/D62E/G103V/S107G,ND ND ND ND ND ND,ND,0/18
N30D/A101V/S107Q,1.28 1.16 0.06 0.59 0.24 0.38,0.62,0/18
G61D/R100Q/A101V/A102S,1.20 ND 3.04 ND 2.47 1.68,2.10,0/18
T28E/F59A/G61H,ND ND ND ND 1.83 2.45,2.14,0/18
S31E/G61T/S63R/R100Q/A101F,2.66 2.03 1.33 1.05 1.84 2.00,1.82,0/18
T28D/T104C/D106Y,ND ND ND ND ND ND,ND,0/18
T28E/S31D/F59E/G61C,1.76 2.52 ND ND 2.05 ND,2.11,1/18 (2.42)
F27N/S31E/G61T/A101T,1.87 0.78 0.92 1.09 1.26 1.03,1.16,0/18
S31E/D106M/S107Q,ND ND ND ND ND ND,ND,0/18

A selection of 4 entries from above:

changes,"log10 Kd, replicates","log10 Kd (nM), mean",control signals
T28D/S31E/G103C/S107Q,ND ND ND ND ND ND,ND,0/18
T28D/S31E/S63A/S107M,0.84 1.57 0.64 0.93 -0.07 -0.08,0.64,0/18
S31E/D106I/S107M,ND ND ND ND ND ND,ND,0/18
G61S/S63D/R100E/D106K,ND 1.07 1.43 1.68 2.15 1.62,1.59,1/18 (1.78)

The authors' rule: three or more of the six replicates give a measured affinity, fewer mean a poor binder.
The range of this assay differs from that of the first round, and the authors advise against merging the two.

Data: MIT Lincoln Laboratory AlphaSeq set, Li et al. 2023, doi:10.1038/s41467-023-39022-2, as distributed in FLAb.